The values that follow come from patent publication US6413998B1, “Compositions and methods for treating bone deficit conditions” (Osteoscreen, Inc., priority 1995, dated 2002).

The assay deals with TMC-23 cells. The assay can be described thus: Alkaline phosphatase (ALP) activity in chondrogenic cell line TMC-23. The following applies: compared to vehicle control. In kind it is cell-based, mouse. On the procedure: Compounds 59-008, 59-0102 and 50-0197 were assayed for effects on the differentiation of cartilage cells, as compared to the action of recombinant human BMP-2. Briefly, a mouse clonal chondrogenic cell line, TMC-23, was isolated and cloned from costal cartilage of transgenic mice containing the BMP-2 gene control region driving SV-40 large T-antigen, generated as described in Ghosh-Choudhury el al Endocrinology 137:331-39, 1996.
For measurement of alkaline phosphatase (ALP) activity, the technique of LF Bonewald et al. J Biol Chem (1992) 267:8943-49, was employed. Briefly, TMC-23 cells were plated in 96 well microtiter plates in DMEM containing 10% FCS at 4×10^3 cells/well. Two days after plating, the cells were confluent and the medium was replaced with fresh medium containing 10% FCS and different concentrations of compounds or recombinant BMP-2. After an additional 2 or 5 days incubation, the plates were washed twice with PBS, and then lysing solution (0.05% Triton X-100) was added (100 μl/well). The cells were lysed by three freeze-thaw cycles of −70° C. (30 min), followed by 37° C. (30 min with shaking). Twenty microliters of cell lysates were assayed with 80 μl of 5 mM p-nitrophenol phosphate in 1.5 M 2-amino-2-methyl-propanol buffer, pH 10.3 (Sigma ALP kit, Sigma Chemical Co., St. Louis, Mo.) for 10 min at 37° C. The reaction was stopped by the addition of 100 μl of 0.5 M NaOH. The spectrophotometric absorbance at 405 nm was compared to that of p-nitrophenol standards to estimate ALP activity in the samples. The protein content of the cell lysates was determined by the Bio-Rad protein assay kit (Bio-Rad, Hercules, Calif.). Specific activity was calculated using these two parameters.

In the case of “Recombinant BMP2: recombinant human bone morphogenetic protein 2, comparator in the chondrogenic assay”, the “induction of ALP levels” value is roughly 1.5 fold (10 ng/ml), roughly 4 fold (50 ng/ml) and “approximately 10 fold” (100 ng/ml).
